In data set [1] the target is Immunoglobulin lambda variable 6-57 (Homo sapiens, UniProt P01721, F49Y/T46L). Briefly: Stabilization of AL patient derived fluorescein-labeled IGLV6-57 T46L/F49Y mutant measured after 24 hrs by proteolysis coupled-fluorescence polarization assay. On the technique in general: Polarisation of emitted light reports the rotation of a fluorescent probe.
Data set [2] in a line: Protein binding in human plasma at 2 uM after 4 hrs by UPLC-MS/MS analysis. The format is ADME, cell-free.
For data set [3], the target named is Immunoglobulin lambda variable 6-57 (Homo sapiens, UniProt P01721). The data set can be described thus: Stabilization of AL patient derived full length fluorescein-labeled IGLV6-57 expressed in Escherichia coli BL21 (DE3) measured after 24 hrs by proteolysis coupled-fluorescence polarization assay.

Protein sequences, listed by entry. Tags and fused reporters are not part of them.
UniProt P01721, whole entry, looked up, stated change not applied: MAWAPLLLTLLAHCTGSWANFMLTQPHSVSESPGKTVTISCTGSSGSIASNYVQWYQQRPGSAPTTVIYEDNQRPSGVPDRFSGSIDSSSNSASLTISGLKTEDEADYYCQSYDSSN

Where only a bound is given, the exact number is not on record here.

With `Cc1c(CCN2CC3(CCN(c4nccn5ccnc45)CC3)NC2=O)c(=O)oc2cc(O[C@@H](C)c3ccccc3)ccc12`, the EC50 in data set [1] was found to be 5.5 nM. In turn, `Cc1c(CCN2CC3(CCN(c4nccn5ccnc45)CC3)NC2=O)c(=O)oc2cc(O[C@H](C)c3ccccc3)ccc12` registered a PPB in data set [2] greater than 99.5%. This molecule gave an EC50 in data set [3] of 4.1 nM.

The values above are taken from ChEMBL document CHEMBL4834435, “Discovery of Potent Coumarin-Based Kinetic Stabilizers of Amyloidogenic Immunoglobulin Light Chains Using Structure-Based Design” (J Med Chem, 2021).
